This passage reports Ki results from patent publication US20210163536A1.

By UniProt entry, the sequences of proteins in these tests, tags left out. Where a name states a change or a piece, a line headed by the entry shows the natural chain unless it says otherwise.
UniProt Q01726: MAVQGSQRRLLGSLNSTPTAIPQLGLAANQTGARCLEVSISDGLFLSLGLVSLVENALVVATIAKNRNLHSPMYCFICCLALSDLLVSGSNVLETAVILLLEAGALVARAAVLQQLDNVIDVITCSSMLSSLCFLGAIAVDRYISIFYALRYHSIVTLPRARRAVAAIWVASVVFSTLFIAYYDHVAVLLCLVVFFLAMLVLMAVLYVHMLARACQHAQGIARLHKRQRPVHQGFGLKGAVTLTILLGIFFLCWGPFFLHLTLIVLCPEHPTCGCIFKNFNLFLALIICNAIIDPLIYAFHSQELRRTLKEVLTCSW
UniProt P41968: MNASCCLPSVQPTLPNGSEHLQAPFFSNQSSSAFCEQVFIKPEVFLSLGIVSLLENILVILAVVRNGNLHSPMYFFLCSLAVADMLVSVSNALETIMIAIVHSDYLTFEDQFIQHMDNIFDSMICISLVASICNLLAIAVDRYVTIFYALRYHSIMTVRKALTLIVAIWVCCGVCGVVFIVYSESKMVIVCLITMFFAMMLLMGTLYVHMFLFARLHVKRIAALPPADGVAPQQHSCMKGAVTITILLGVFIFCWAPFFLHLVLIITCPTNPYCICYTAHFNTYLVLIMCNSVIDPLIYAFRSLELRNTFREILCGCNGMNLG
UniProt P32245, whole entry: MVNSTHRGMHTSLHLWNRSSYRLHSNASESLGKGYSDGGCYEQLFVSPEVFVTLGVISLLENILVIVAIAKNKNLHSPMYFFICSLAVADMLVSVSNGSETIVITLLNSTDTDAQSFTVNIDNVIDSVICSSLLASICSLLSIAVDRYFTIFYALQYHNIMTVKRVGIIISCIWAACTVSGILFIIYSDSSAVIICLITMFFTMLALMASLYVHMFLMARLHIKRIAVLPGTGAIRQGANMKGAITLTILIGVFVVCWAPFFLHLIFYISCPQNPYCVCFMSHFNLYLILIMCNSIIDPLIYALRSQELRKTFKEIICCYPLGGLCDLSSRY
UniProt P33032: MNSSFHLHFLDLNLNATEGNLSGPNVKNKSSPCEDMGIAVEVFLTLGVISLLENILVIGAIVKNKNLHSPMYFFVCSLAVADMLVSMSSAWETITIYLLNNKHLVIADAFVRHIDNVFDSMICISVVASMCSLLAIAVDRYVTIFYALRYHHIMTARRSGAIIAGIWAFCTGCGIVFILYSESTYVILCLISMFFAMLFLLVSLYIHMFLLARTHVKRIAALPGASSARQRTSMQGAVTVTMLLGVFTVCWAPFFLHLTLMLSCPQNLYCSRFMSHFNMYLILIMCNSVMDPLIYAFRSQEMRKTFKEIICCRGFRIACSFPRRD

Common to all, as to assay: competition with [125I]-NDP-alpha-MSH, CHO-K1 cell membranes
For assay [1], the target named is human melanocortin-1 receptor (human) (UniProt Q01726).
Assay [2] deals with human melanocortin-3 receptor (human) (UniProt P41968).
Assay [3] deals with human melanocortin-4 receptor (human) (UniProt P32245).
Assay [4] concerns the target human melanocortin-5 receptor (human) (UniProt P33032).

B1: cyclo[Hydantoin(C(O)-(Cys-D-Ala))-His-D-Phe-Arg-Trp-Cys]-NH2 (peptide)
peptide: HXRWC
modifications: not fully specified; hydantoin ring from Cys 1, C(O) and the amino group of D-Ala 2; D-Ala 2; D-Phe 4; disulfide Cys 1-Cys 7 (cyclo); C-terminal amide
Turning to B1, the Ki (commonly a measure of affinity in units of concentration, obtained from inhibition or displacement) in assay [1] is 0.23 µM; in assay [2], 7.59 µM; in assay [3], 0.126 µM; in assay [4], 7.02 µM.
